Results taken from US20090226500A1, “SUTURES AND ANTI-SCARRING AGENTS” (Angiotech Pharmaceuticals, Inc, priority 2006, published 2009).

Test system: nitric oxide production by macrophages (murine macrophage cell line RAW 264.7)
Test: Nitric oxide production by macrophages
Format: cell-based
Conditions: read-out: IC50 nitric oxide (nitrite) production
[1] = Mus musculus, RAW264.7, RAW 264.7 cells stimulated with IFNγ and LPS, 24 hours

Structure (SMILES)	IC50 [1]	other results
COC1=C2C[C@@H](C)C[C@H](OC)[C@H](O)[C@@H](C)/C=C(\C)[C@H](OC(N)=O)[C@@H](OC)/C=C\C=C(/C)C(=O)NC(=CC1=O)C2=O [geldanamycin]	51 nM	
C=CCNC1=C2C[C@@H](C)C[C@H](OC)[C@H](O)[C@@H](C)/C=C(\C)[C@H](OC(N)=O)[C@@H](OC)/C=C\C=C(/C)C(=O)NC(=CC1=O)C2=O [17-AAG, 17-allylaminogeldanamycin]		IC50 (RAW 264.7 cells stimulated with IFNγ and LPS, 24 hours): 840 nM
CC(=O)O[C@H]1C(=O)[C@@]2(C)[C@H]([C@H](OC(=O)c3ccccc3)[C@]3(O)C[C@H](OC(=O)[C@H](O)[C@@H](NC(=O)c4ccccc4)c4ccccc4)C(C)=C1C3(C)C)[C@]1(OC(C)=O)CO[C@@H]1C[C@@H]2O [paclitaxel, 5β,20-epoxy-1,2 alpha,4,7β,10β,13 alpha-hexahydroxytax-11-en-9-one-4,10-diacetate-2-benzoate-13-(alpha-phenylhippurate)]	7 nM	
O=C(CC1NCCCC1O)Cn1cnc2cc(Br)c(Cl)cc2c1=O (stereo not shown) [halofuginone]		IC50 (Mus musculus, RAW264.7, 24 h): 12 nM

Read-outs that look alike come from different tables or passages of the source.
